Values of other authors as cited in patent publication US5320825A, “Serotonin reuptake inhibitors for S.P.E.C.T. imaging” (Trustees of the University of Pennsylvania, priority 1991, dated 1994).

Legend:
[1] = target: serotonin reuptake system (5-HT); conditions: read-out: Inhibition of monoamine uptake, 5-HT (Ki); cited from earlier work
[2] = target: norepinephrine (NE) reuptake system; conditions: rat synaptosomes; read-out: Inhibition of monoamine uptake, NE (Ki); cited from earlier work

| Compound | Ki [1] [nM] | Ki [2] [nM] |
| --- | --- | --- |
| Fc1ccc([C@@H]2CCNC[C@H]2COc2ccc3c(c2)OCO3)cc1 [Paroxetine] | 1.1 | – |
| CNC1CCC(c2ccc(Cl)c(Cl)c2)c2ccccc21 (stereo not drawn) [Sertraline] | – | 720 |
| CNCCC(Oc1ccc(C(F)(F)F)cc1)c1ccccc1 (stereo not drawn) [Fluoxetine] | 25 | – |
